Data published in US9855268B2, “Triazolo[4,5-d]pyrimidine derivatives” (Merck Patent GmbH, priority 2013, dated 2018).

By UniProt entry, the sequences of proteins in these tests, tags left out.
UniProt Q9P2K8, whole entry: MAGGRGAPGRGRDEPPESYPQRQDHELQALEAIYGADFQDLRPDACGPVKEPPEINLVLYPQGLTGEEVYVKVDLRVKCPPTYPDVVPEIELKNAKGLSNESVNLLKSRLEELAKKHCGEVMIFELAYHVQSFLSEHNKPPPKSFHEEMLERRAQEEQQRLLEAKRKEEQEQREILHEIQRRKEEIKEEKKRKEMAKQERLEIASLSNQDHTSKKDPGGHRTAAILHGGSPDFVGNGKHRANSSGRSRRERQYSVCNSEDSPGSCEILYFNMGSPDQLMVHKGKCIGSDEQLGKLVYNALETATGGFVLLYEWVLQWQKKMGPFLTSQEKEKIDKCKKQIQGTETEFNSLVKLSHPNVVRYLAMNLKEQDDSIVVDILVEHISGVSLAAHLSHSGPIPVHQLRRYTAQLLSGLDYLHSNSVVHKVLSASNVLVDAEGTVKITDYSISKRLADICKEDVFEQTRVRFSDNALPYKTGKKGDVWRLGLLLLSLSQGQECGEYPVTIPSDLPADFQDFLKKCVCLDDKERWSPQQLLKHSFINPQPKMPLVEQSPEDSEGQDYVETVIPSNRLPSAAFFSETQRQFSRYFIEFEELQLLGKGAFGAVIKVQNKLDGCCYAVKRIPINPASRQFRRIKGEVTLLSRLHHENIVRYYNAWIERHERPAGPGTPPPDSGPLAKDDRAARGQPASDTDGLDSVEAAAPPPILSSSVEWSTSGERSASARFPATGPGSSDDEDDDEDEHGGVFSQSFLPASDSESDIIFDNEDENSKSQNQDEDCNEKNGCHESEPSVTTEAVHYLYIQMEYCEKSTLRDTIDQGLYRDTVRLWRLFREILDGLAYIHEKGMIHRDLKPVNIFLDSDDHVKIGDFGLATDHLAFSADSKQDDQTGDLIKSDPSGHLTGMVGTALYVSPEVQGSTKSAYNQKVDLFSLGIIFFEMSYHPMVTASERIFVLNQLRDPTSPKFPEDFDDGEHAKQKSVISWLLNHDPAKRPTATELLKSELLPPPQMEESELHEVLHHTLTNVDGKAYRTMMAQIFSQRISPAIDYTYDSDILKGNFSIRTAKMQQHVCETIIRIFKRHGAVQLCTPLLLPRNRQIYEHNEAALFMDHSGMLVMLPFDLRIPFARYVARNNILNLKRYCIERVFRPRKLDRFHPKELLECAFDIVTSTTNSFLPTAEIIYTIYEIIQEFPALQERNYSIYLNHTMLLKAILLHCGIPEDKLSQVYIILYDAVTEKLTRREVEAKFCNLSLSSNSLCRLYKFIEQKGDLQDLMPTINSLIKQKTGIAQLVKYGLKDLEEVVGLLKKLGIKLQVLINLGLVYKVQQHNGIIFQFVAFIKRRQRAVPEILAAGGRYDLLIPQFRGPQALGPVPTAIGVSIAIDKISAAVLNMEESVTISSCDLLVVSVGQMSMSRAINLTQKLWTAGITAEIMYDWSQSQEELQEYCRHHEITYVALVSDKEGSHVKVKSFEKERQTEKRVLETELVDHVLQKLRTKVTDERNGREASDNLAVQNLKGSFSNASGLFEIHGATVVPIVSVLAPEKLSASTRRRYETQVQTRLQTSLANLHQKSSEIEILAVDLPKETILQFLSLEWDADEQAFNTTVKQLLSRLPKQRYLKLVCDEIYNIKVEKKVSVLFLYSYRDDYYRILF

Target: GCN2 (Homo sapiens, UniProt Q9P2K8)
Experiment: GCN2 enzyme assay (TR-FRET Lanthascreen, GFP-eIF2alpha phosphorylation)
Assay type: biochemical
Conditions: read-out: IC50 GCN2 (enzyme assay); 10 μM ATP, 80 nM GFP-eIF2a, 30 nM GCN2

IC50 [µM]	Compound
< 1	NC(=O)[C@@H]1CC[C@@H](Nc2ncc3nnn(-c4ccc(OCC(O)(C(F)(F)F)C(F)(F)F)cc4)c3n2)C1
< 1	COc1ccc(-n2nnc3cnc(NC4CCC(O)C4)nc32)cc1 (single isomer, unassigned)
